The target of the test is filamentous actin (F-actin) polymerized from rabbit muscle G-actin (rabbit) (UniProt P68135). The test can be described thus: co-sedimentation; high-speed cosedimentation; CLIP-170 fragments 4 μM, phalloidin 0.8 μM, F-actin 0, 1, 2, 4, 8, 12, 16, 24 and 28 μM in PEM50, room temperature; apparent KD from a simple binding equation, 1:1 binding ratio assumed, Bmax set to 1.
As to “CLIP-170 CG2 fragment (206-288) (from UniProt P30622 206-288) (domain or fragment)”, the Kd was 90 µM.
With “CLIP-170 CG2-S3 fragment (203-350) (from UniProt P30622 203-350) (domain or fragment)”, the Kd is 20 µM.
“CLIP-170 S2-CG2-S3 fragment (156-350) (from UniProt P30622 156-350) (domain or fragment)”: the Kd was 10 µM.

These data come from paper PMC9062740.
